Measurements taken from PMC3627225 (Journal of medicinal chemistry, 2013).

What was measured:
[1] = target: recombinant HCV NS5BCΔ21 (genotype 1b) (Hepatitis C virus genotype 1b, UniProt O92972); details: logP by QikProp
[2] = tested on: HCV genotype 1b subgenomic replicon (Huh 5-2)

`CN1c2c(C(=O)Nc3ccc(NS(C)(=O)=O)cc3)nn(-c3ccc(F)cc3)c2-c2ccccc2S1(=O)=O` [4c, 1-(4-Fluorophenyl)-4-methyl-N-{4-[(methylsulfonyl)amino]phenyl}-1,4-dihydropyrazolo[4,3-c][1,2]benzothiazine-3-carboxamide 5,5-dioxide] was tested. Which “LLE (IC50) = pIC50 – predicted logP” value [1] did it give?
Its value is 3.11.

What about the “SI (ratio of CC50 to EC50)” value [2] of the same compound?
The value was >10.
